# Laboratory results published in PubChem BioAssay AID889 (National Center for Advancing Translational Sciences (NCATS), 2007).
# Sequences of proteins named here, by UniProt entry; tags and fusion partners are left off. Residues count along the entry.
# UniProt P55210, 24-198 limits assumed: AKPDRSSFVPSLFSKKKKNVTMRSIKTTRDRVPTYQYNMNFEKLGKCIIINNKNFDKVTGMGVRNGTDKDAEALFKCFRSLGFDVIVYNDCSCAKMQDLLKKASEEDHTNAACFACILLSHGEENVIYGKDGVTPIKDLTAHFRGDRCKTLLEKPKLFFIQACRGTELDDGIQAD
# UniProt P55210, 207-303 limits assumed: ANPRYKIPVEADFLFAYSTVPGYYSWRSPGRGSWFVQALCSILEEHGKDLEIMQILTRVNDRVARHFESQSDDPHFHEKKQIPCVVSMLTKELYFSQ
# This is a selection; strong and weak results do not stand in their true shares. Records with an inconclusive call do not appear. The source made the active and inactive calls. The call rests on the fitted dose curve; in most records, active means well fitted inhibition curve with a large enough effect in the main read-out, with a control signal flat (not every such curve was filed as active); inconclusive means small, poorly fitted or top-dose-only effect, or a change in a side signal; inactive means flat fitted curve, though single readings scatter.
# Molecular target: Caspase-7 (Homo sapiens) (UniProt P55210)
# Assay: qHTS Assay for Allosteric/Competitive Inhibitors of Caspase-7; further: % of control where 0% means no effect
# Conditions: recombinant caspase-7, Ac-DEVD-AFC fluorescence rate; at 57.5 µM (top of the series) unless noted
# From the text: NIH Molecular Libraries Screening Centers Network [MLSCN]
# NIH Chemical Genomics Center [NCGC]
# PI Name: Dr. James Wells,
# Dr. Enrique Perez-Paya, Dr.Janice Williams, Dr. Dennis Wolan, a person
# The caspases (Cysteine Aspartyl Protease) comprise a related family of 14 dimeric proteases that are critical mediators of apoptosis (programmed cell death) and inflammation. The caspases represent an important class of drug targets for stroke, ischemia, cancer and inflammatory diseases. […] One goal of this project was to identify compounds that act as allosteric inhibitors via stabilizing the procaspase form of the enzyme. Previous work in Well's laboratory has shown that such allosteric inhibitors can be identified and these act by binding at the dimer interface of enzyme (Hardy, Lam et al., 2004).
# The biochemical assay was configured using purified caspase 7 at a high enzyme concentration to promote formation of the homodimers and thus facilitate the identification of allosteric inhibitors. The overall goal was to identify reversible inhibitors with better drug-like properties than the currently available set of aspartyl-containing peptidomimetics that covalently bind the active site. Caspase 7 was assayed using the profluorescent substrate Ac-DEVD-AFC. After initiation of the assay with substrate the plates were rapidly read using an automated robotic system (Kalypsys, Inc.) to maintain consistent timing. A kinetic mode of detection was used where the initial rate was collected (estimated final product formation was ~10%). Compounds were screened as a concentration-titration series that ranged from 57 uM to 0.7 nM. Below is the protocol used for caspase 7.
# NCGC Assay Protocol Summary:
# Caspase 7 was prepared in buffer (50 mM HEPES pH 7.5, 50 mM KCl, 200 mM NaCl, 10 mM DTT, 0.1% CHAPS) at a concentration of 66.6 nM and 3 uL was dispensed to all wells using black solid Kalypsys 1536-well plates. 20 nL of DMSO containing compounds was added using a pin-tool (Kalypsys Inc.) to columns 5-48. Then 20 nL of DMSO solution from a control plate was added to columns 1-4. Controls were: Column 1, 16 point titration with each concentration in duplicate (1:1 dilutions in DMSO; final starting concentration was 57 uM) of the caspase 7 inhibitor Ac-DEVD-CHO (Alexis Biochemicals); Column 2, a 16 point titration with each concentration in duplicate of the free AFC fluorophore prepared in DMSO (Alexis Biochemicals), final starting was 40 uM; Column 3 neutral (DMSO only) control; Column 4: DMSO alone, to serve as a negative control (no substrate was added). Then 1 uL of 20 uM the substrate Ac-DEVD-AFC (Alexis Biochemicals) prepared in the same buffer was dispensed to all wells except columns 2 and 4 and the plates were immediately transferred (< 1 min) to the Viewlux. The plates were then exposed using 405 nm excitation/520 nm emission filters for 4 sec and read at 20 sec intervals for 3 min. Final enzyme concentration was 50 nM and the final substrate concentration was 5 uM.
# Concentration-response curves were fitted to the data calculated from slope of the linear regression of fluorescent intensity versus time (the rate). The concentration-effect curves were then classified based on curve quality (r2), response magnitude and degree of measured activity. […] Inconclusive compounds had appreciable concentration-dependent effects on both the measured rate and the interpolated basal fluorescence intensity at the start of the reaction but where the basal fluorescent intensity was marginal (e.g. < 10-fold). Inconclusive compounds also encompass highly fluorescent compounds (>100-fold increases in fluorescent intensities values relative to controls) where artificial concentration-dependent decreases in the rate occurred at high compound concentrations due to fluorescent interferences.
# Keywords: Caspase 7, proteases, profluorescent, MLSMR, MLSCN, NIH Roadmap, qHTS, NCGC
row,Structure (SMILES),"activity change, negative = inhibition"
1,NC1CCCCC1.NP(=O)(O)N(CCCl)CCCl,inactive: -1.17% [at 11.5 µM]
2,CCOP(=O)(Cl)Cl,inactive: -0.603%
3,N#CC1(Nc2ccccc2)CCN(CCc2ccccc2)CC1,inactive: 0.283%
4,COc1ccc(NC2CCN(CCc3ccccc3)CC2)c(OC)c1,inactive: 1.03%
5,O=C(OC1CN2CCC1CC2)C1c2ccccc2Oc2ccccc21 (stereo unspecified),inactive: 1.24%
6,CCC(CO)(C(=O)OC1CN2CCC1CC2)c1ccccc1 (stereo unspecified),inactive: 0.277%
7,O=C(O)C1(Nc2ccccc2)CCN(Cc2ccccc2)CC1,inactive: 2.4% [at 11.5 µM]
8,CCOc1ncccc1C(=O)NCC1(N2CCOCC2)CCCCC1,inactive: 6.22%
9,Fc1ccccc1NC1CCN(Cc2ccccc2)CC1,inactive: -1.36%
10,ClCCOP(OCCCl)OCCCl,inactive: 0.163%
11,N/C(=N\O)c1c(N)no[n+]1[O-],inactive: -1.38%
